System: cells exogenously expressing FLT3 mutants, including FLT3-ITD, FLT3-D835H, FLT3-D835Y and FLT3-ITD-D835Y
Experiment: proliferation of cells exogenously expressing FLT3 mutants
Settings: read-out: IC50, proliferation

CCc1nc(C(N)=O)c(Nc2ccc(N3CCC(N4CCN(C)CC4)CC3)c(OC)c2)nc1NC1CCOCC1 [gilteritinib] showed an IC50 of 0.92 to 2.1 nM.

Reference: PMC8506653 (Clinical cancer research : an official journal of the …, 2021)
